Measurements as given in patent US20260335456A1, “ANTIBODY-DRUG CONJUGATE HAVING CAMPTOTHECIN-BASED DRUG LINKED TO ANTIBODY HAVING LOW ANTIGEN-BINDING AFFINITY THROUGH LINKER” (PINOTBIO, INC., priority 2022, published 2026).

Columns and labels:
[1] = tested on: EGFR positive (MDA-MB-468) and negative (SW620) cells; assay: In vitro assay of nimotuzumab/cetuximab ADCs in EGFR positive and negative cells; assay type: cell-based; settings: FIG. 19
MDA-MB-468 tumor model = assay: In vivo efficacy in MDA-MB-468 model (EGFR ADCs); design: species or system mouse; settings: FIG. 23

Molecule | discrimination of positive and negative cell lines / ADC performance [1] | tumor regression versus Nimotuzumab-19-1 (MDA-MB-468 tumor model)
Nimotuzumab ADC: nimotuzumab ADC of FIG. 19, linker-payload not stated in the text (conjugate, chains of the INN, looked up, drug conjugate, linker-payload unstated) heavy: QVQLQQSGAEVKKPGSSVKVSCKASGYTFTNYYIYWVRQAPGQGLEWIGGINPTSGGSNFNEKFKTRVTITADESSTTAYMELSSLRSEDTAFYFCTRQGLWFDSDGRGFDFWGQGTTVTVSSASTKGPSVFPLAPSSKSTSGGTAALGCLVKDYFPEPVTVSWNSGALTSGVHTFPAVLQSSGLYSLSSVVTVPSSSLGTQTYICNVNHKPSNTKVDKKV[in this place human IgG1 Fc] light: DIQMTQSPSSLSASVGDRVTITCRSSQNIVHSNGNTYLDWYQQTPGKAPKLLIYKVSNRFSGVPSRFSGSGSGTDFTFTISSLQPEDIATYYCFQYSHVPWTFGQGTKLQITRTVAAPSVFIFPPSDEQLKSGTASVVCLLNNFYPREAKVQWKVDNALQSGNSQESVTEQDSKDSTYSLSSTLTLSKADYEKHKVYACEVTHQGLSSPVTKSFNRGEC | did not show performance as an ADC | –
Nimotuzumab-25-6: nimotuzumab ADC with linker-payload 25-6 (conjugate, chains of the INN, looked up, linker-payload 25-6) heavy: QVQLQQSGAEVKKPGSSVKVSCKASGYTFTNYYIYWVRQAPGQGLEWIGGINPTSGGSNFNEKFKTRVTITADESSTTAYMELSSLRSEDTAFYFCTRQGLWFDSDGRGFDFWGQGTTVTVSSASTKGPSVFPLAPSSKSTSGGTAALGCLVKDYFPEPVTVSWNSGALTSGVHTFPAVLQSSGLYSLSSVVTVPSSSLGTQTYICNVNHKPSNTKVDKKV[in this place human IgG1 Fc] light: DIQMTQSPSSLSASVGDRVTITCRSSQNIVHSNGNTYLDWYQQTPGKAPKLLIYKVSNRFSGVPSRFSGSGSGTDFTFTISSLQPEDIATYYCFQYSHVPWTFGQGTKLQITRTVAAPSVFIFPPSDEQLKSGTASVVCLLNNFYPREAKVQWKVDNALQSGNSQESVTEQDSKDSTYSLSSTLTLSKADYEKHKVYACEVTHQGLSSPVTKSFNRGEC | – | superior tumor regression than Nimotuzumab-19-1
